Sequences of proteins named here, by UniProt entry; tags and fusion partners are left off.
ATP-dependent Clp protease proteolytic subunit (Bacillus subtilis (strain 168)), P80244, UniProt P80244, whole entry, looked up: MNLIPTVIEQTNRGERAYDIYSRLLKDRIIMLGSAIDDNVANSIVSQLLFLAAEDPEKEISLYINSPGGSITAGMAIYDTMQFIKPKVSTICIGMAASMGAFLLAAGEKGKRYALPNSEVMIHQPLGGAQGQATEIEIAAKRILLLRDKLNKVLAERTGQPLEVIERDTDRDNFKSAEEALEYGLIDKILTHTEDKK

# From PubChem
# An excerpt weighted towards active compounds, which were near 3.7% of everything screened.
# A549 viability: kills or reduces viability of A549 cells in Nrf2 counter-screen; A549 ARE-Fluc cells, CellTiter-Fluor viability, 18-24 h; Potency, µM (top dose mostly 46 µM), without a hit: top-dose activity change, negative = cytotoxicity, usual class: inhibitors; 390,000 tested, 0.16% active; note: potency is the fitted concentration of half-maximal effect; % is set by controls: 0 for no effect and ±100 for the full control effect
#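 Cytotoxicity counterscreen: CellTiter-Fluor fluorescence was measured in A549 ARE_Fluc cells after 18-24 h of compound exposure in a concentration series. The subsequent BugLite luminescent read reports ARE-luciferase activity.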
# ClpP mod: qHTS Assay for Activators of ClpP; 340,000 tested, 1.9% active; purified B. subtilis ClpP, FRET peptide cleavage, 20 min; Potency, µM (highest dose often 57.5 µM), for the others: at the top dose activity change, negative = active; ATP-dependent Clp protease proteolytic subunit (Bacillus subtilis (strain 168)), P80244; active = well fitted falling curve with a large enough effect; inconclusive = small, poorly fitted or top-dose-only effect; inactive = no such curve, though single readings can be large or run the other way; note: potency is the fitted concentration of half-maximal effect; the source files actives as falling curves though it sought activators and does not explain the sign; nearly all actives have a fitted effect of over 65% in size
#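 ClpP 10 microg/mL final, pH 8 Tris/KCl buffer with BSA, glycerol, Tween-20; compound pinned in; FRET-FV substrate; RT 20 min; Ex320/Em430; ΔFRET vs ADEP 5.8 microM, DMSO, no enzyme.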
# Nrf2 activator: activators of Nrf2 (ARE) signaling. AREc32 ARE-luciferase reporter (MCF7-derived line), luminescence, 24 h. AID 624171. Potency, µM (series often up to 46.1 µM), for inactives: at the top dose activation, hits mostly activators. 410,000 tested, 0.31% active; note: potency is the fitted concentration of half-maximal effect; % of control where 0% means no effect; nearly all actives have a fitted effect of over 65% in size
#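 Luminescent ARE reporter assay in AREc32_Fluc cells: overnight plating at 37 deg C, 24 hr compound incubation, Steady-Glo added, 30 min RT before reading.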
# miR-21 reporter: raises the signal of a miR-21 reporter | AID 2288 | 340,000 tested, under 10 active | Potency, µM (series often up to 38.3 µM), without a hit: at the highest dose reporter change, positive = more light | HeLa miR-21 FLuc reporter, luciferase, 48 h; active = well fitted rising curve with a large enough effect; inconclusive = small, poorly fitted or top-dose-only effect; inactive = no such curve, though single readings can be large or run the other way;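 further: % of control where 0% means no effect; miR-21 action dims this reporter so a rising signal means less miR-21 action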
#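 Compounds were titrated across several concentrations (up to approximately 40 uM) and incubated 48 hours with HeLa miR-21-FLuc reporter cells (miR-21 target sequence downstream of FLuc, endogenous miR-21). Readout was firefly luciferase luminescence after lytic detection reagent.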
# Nrf2 block: blocks Nrf2 signaling; 360,000 tested, 2.1% active; A549 ARE-Fluc reporter, luciferase luminescence, 18-24 h; AID 504444; Potency, µM (doses to about 46 µM), for inactives: at the highest dose activity change, negative = inhibition, usual class: inhibitors; note: potency is the fitted concentration of half-maximal effect; % is set by controls: 0 for no effect and ±100 for the full control effect; nearly all actives have a fitted effect of over 60% in size
#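 A549 ARE_Fluc cells (5000/well, 5% FBS OPTI-MEM) pre-incubated 2 h, then treated with compounds 18-24 h at 37C/5% CO2 in concentration-response. CellTiter-Fluor viability read first; BugLite luciferase luminescence after 15 min at room temperature gives Nrf2 activity.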
# IL-2 act: activates IL-2 in a cell-based reporter assay | IL-2 activation reporter assay, cell-based qHTS; stimulated with anti-CD3/CD4/CD28 beads; in transgenic mouse T cells | activation, % (series mostly up to about 46 µM) | 360,000 tested, 0.065% active | AID 652025; in the data active = activation above about 50%; inconclusive = mostly about 30% to 49%; note: 0% is about no effect
#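 First, unstimulated transgenic mouse T cells were exposed to compound for 60 min. Next, anti-CD3/anti-CD4-coated beads with anti-CD28 were added. Finally, after 18 h at 37 degrees C, EGFP and DsRed were imaged.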
# Active calls of the source: *; ? = inconclusive; . = no result; ! = not confirmed by another sample; [ ] = remark or other dose. Unless noted, calls come from the whole dose curve; as a rule, active = well fitted curve in the direction sought with a large enough effect; inconclusive = small, poorly fitted or top-dose-only effect, or another doubt; inactive = no such curve, though single readings can be large; an effect the other way counts as inactive or inconclusive.
nr | SMILES | A549 viability | ClpP mod | Nrf2 activator | miR-21 reporter | Nrf2 block | IL-2 act
1 | O=C(Cn1nc(Cc2ccncc2)c2ccccc2c1=O)Nc1cccc(C(F)(F)F)c1 | -9% | -1% | 1% | 7% | ? | .
2 | Cc1cc(/C=C/c2c(C)cnc3ccccc23)ccc1N(C)C | . | 0% | . | . | . | .
3 | O=C(Nc1ccc2c(c1)C(=O)N(C1CCCCC1)C2=O)C1CCCO1 (centres undefined) | -2% | 32µM* | 3% | -14% | -7% | 0
4 | O=C(Nc1ccc(Br)c(Br)c1)C1CCCO1 (centres undefined) | 2% | . | 4% | . | ? | -1
5 | CCC(=O)Oc1ccc(C(=O)Nc2ccc3c(c2)C(=O)N(C2CCCCC2)C3=O)cc1 | ? | 25µM* | 0% | -1% | ? | -3
6 | CCOc1ccccc1NC(=O)C(=O)NCCc1sc2nc(-c3ccc(OC)cc3)nn2c1C | -9% | 1% | 0% | -43% | . | .
7 | COc1ccc(C(=O)N/N=C(\C)Cn2nc([N+](=O)[O-])cc2C)cc1 | -16% | 11µM* | 3% | -27% | 14% | -3
8 | Cc1cc(/C=N/n2c(COc3ccccc3C)nc3ccccc3c2=O)c(O)c([N+](=O)[O-])c1 | ? | 1% | 3% | -17% | 8.2µM* | 0

# Values in list order from the list:
# Compounds 1–8 in Nrf2 block: ?, ., -7%, ?, ?, ., 14%, 8.2µM*

# (listing goes on)
nr | SMILES | A549 viability | ClpP mod | Nrf2 activator | miR-21 reporter | Nrf2 block | IL-2 act
9 | C=C1C(=O)C2=CC1CCC(=O)C1(C)CCC(OC(C)=O)C(C)(C)C1CC2O (centres undefined) | ? | -1% | ? | . | 15µM* | -1
10 | C=C1C(=O)[C@]23C[C@H]1CC[C@H]2[C@]1(C)[C@@H](OC(C)=O)CC[C@@](C)(C(=O)O)[C@H]1C[C@@H]3O | . | -2% | ? | . | . | 0
11 | Cc1ccc(C2=NS(=O)(=O)N(C)C(C(=O)Nc3ccc(F)cc3F)=C2)cc1 | -8% | -1% | 0% | 2% | ? | -1
12 | COc1ccc(OC)c(C2=NS(=O)(=O)N(C)C(C(=O)Nc3ccc(F)cc3F)=C2)c1 | ? | 1% | 0% | 16% | 15µM*! | -2
13 | COc1ccc(Cl)cc1NS(=O)(=O)c1cc(-c2cc(C)no2)ccc1C | -21% | 0% | 1% | 22% | ? | .
14 | COc1ccc(-c2noc(N3CCC(C(=O)N4CCN(c5ccccc5OC)CC4)CC3)n2)cc1 | -16% | -5% | -2% | 18% | . | .
15 | COc1ccc(-c2noc(N3CCC(C(=O)N4CCN(c5ccccn5)CC4)CC3)n2)cc1 | -27% | ? | 0% | ? | 18µM* | -1
16 | CCN(C(=O)C1CCN(c2nc(-c3ccc(OC)cc3)no2)CC1)c1ccc(OC)cc1 | -9% | 0% | 1% | 22% | 13µM* | -2
17 | CCC(=O)NC(c1ccc(Br)o1)c1cc(Cl)c2cccnc2c1O (centres undefined) | -15% | . | . | . | ? | .
18 | CCCC(=O)Nc1cccc(NC(=O)c2cccc([N+](=O)[O-])c2C)c1 | 3% | 11µM* | 0%[9.22 µM] | 1% | -3% | 0
19 | COc1ccc(NC(=O)c2ccccc2[N+](=O)[O-])cc1 | -1% | 1% | 0% | -42% | ? | 0
20 | COc1ccccc1Nc1ccc(NC(=O)c2cccc([N+](=O)[O-])c2C)cc1 | -22% | -5% | 8% | 16% | 10µM* | 4
21 | CCC(=O)N1CCc2cc(S(=O)(=O)NCCC(=O)Nc3cccc(SC)c3)ccc21 | -4% | 0% | 5% | 9% | -15% | .
22 | O=C1c2cccc(OCC(=O)N3N=C(c4cccs4)CC3c3ccc(F)cc3)c2CCN1Cc1cccnc1 (centres undefined) | -18% | 28µM* | -1%[9.22 µM] | 7% | ? | 0
23 | N#Cc1ccc(NS(=O)(=O)c2ccc3c(c2)CCC(=O)N3)cc1 | -3% | . | . | . | 0% | .
24 | O=C(OCC#CCSc1nnc(-c2cccc3ccccc23)o1)c1csc2ccccc12 | 1% | . | . | . | 22% | .
25 | CCOC(=O)c1nnn(CC(=O)N2N=C(c3cccc4ccccc34)CC2c2ccccc2)c1C(=O)OCC (centres undefined) | -9% | 11µM* | 1% | -15% | -9% | -2
26 | CCN1CCc2c(sc(-n3cccc3)c2C(C)NC(=O)Nc2ccccc2C)C1 (centres undefined) | 1% | -13% | 10% | -10% | ? | .
27 | COCCc1nn2c(=O)cc(COC(=O)c3ccccc3C)nc2s1 | 3% | -5% | 5% | -64% | ? | .
28 | O=C(CSCC(=O)Nc1nc(-c2ccc3c(c2)OCO3)cs1)Nc1nccs1 | 2% | -2% | 3% | -6% | 21µM* | -4
29 | O=C(CSc1ccc(-c2ccc3c(c2)OCO3)nn1)Nc1nccs1 | -11% | 0% | 0% | -16% | ? | -2
30 | O=C(NCc1ccco1)c1ccc2c(c1)C(=O)N(Cc1ccccc1)C2=O | 2% | 28µM* | 18% | -3% | 10% | 3
31 | C=CCN1C(=O)CSc2ccc(C(=O)NCc3ccco3)cc21 | 7% | -4% | 6% | 0% | 16% | -1
32 | COC(=O)c1ccccc1NC(=O)c1ccc2c(c1)C(=O)N(Cc1ccco1)C2=O | 0% | 28µM* | 0% | . | -4% | 1
33 | CC(C)CCN1C(=O)c2ccc(C(=O)NCc3ccco3)cc2C1=O | 0% | -1% | 6% | 0% | . | 0
34 | O=C(NCc1ccco1)c1ccc2c(c1)N(Cc1ccccc1)C(=O)CS2 | -1% | -2% | 5% | 7% | 23µM* | 0
35 | COc1cc(Cl)c(C)cc1NC(=O)CCn1c(=O)c2cccn2c2cccnc21 | 7% | 6% | 4% | 1% | ? | .
36 | Cc1cc(N)n2ncc(-c3cccc(Br)c3)c2n1 | -6% | 18µM* | 11% | -67% | ? | -1
37 | CCSc1cc(C)nc2c(-c3ccccc3)cnn12 | 10% | 3% | 16µM* | -82% | ? | 0
38 | C=CCSc1cc(C)nc2c(-c3ccccc3)cnn12 | -2% | 3% | 13% | -72% | ? | 1
39 | CN(C)CCN(Cc1ccc(Cl)cc1)c1ccccn1 | -2% | -7% | -1% | -1% | -13% | 1
40 | C[N+](C)(C)CCN(Cc1ccc(Cl)cc1)c1ccccn1 | 2% | 25µM* | 0% | 9% | -14% | -2
41 | O=C(Nc1nc2ccccc2n1CCN1CCOCC1)c1cn(-c2ccccc2)nc1-c1ccccc1 | ? | -27% | 0% | ? | 21µM* | 0
42 | CC(Sc1nc(=O)cc(N)n1CCc1ccccc1)C(=O)Nc1ccccc1C#N (centres undefined) | -5% | -1% | 0% | 3% | 28% | .
43 | Cc1oc(-c2ccccc2F)nc1CSCC(=O)NC1CCCC1 | 0% | -13% | 0% | 4% | 18µM* | -3
44 | CC(C)CN(C)c1ccc(/C=C2\C=Cc3ccccc32)cc1 | . | 0% | . | . | . | .

# A second format for part of the listing above.
39: CN(C)CCN(Cc1ccc(Cl)cc1)c1ccccn1
40: C[N+](C)(C)CCN(Cc1ccc(Cl)cc1)c1ccccn1

Compound	39	40
A549 viability	-2%	2%
ClpP mod	-7%	25µM*
Nrf2 activator	-1%	0%
miR-21 reporter	-1%	9%
Nrf2 block	-13%	-14%
IL-2 act	1	-2

# A draw from above in order of heavy-atom count, ascending:
nr | SMILES | A549 viability | ClpP mod | Nrf2 activator | miR-21 reporter | Nrf2 block | IL-2 act
39 | CN(C)CCN(Cc1ccc(Cl)cc1)c1ccccn1 | -2% | -7% | -1% | -1% | -13% | 1
44 | CC(C)CN(C)c1ccc(/C=C2\C=Cc3ccccc32)cc1 | . | 0% | . | . | . | .
42 | CC(Sc1nc(=O)cc(N)n1CCc1ccccc1)C(=O)Nc1ccccc1C#N (centres undefined) | -5% | -1% | 0% | 3% | 28% | .
